One assay deals with hNET transporter (UniProt Q9WTR4). The assay can be described thus: Norepinephrine reuptake inhibition at the norepinephrine transporter. Type of assay: biochemical, human. The conditions noted are these: in vitro, homogenized rat brain.
The target of a further assay is hSERT transporter (UniProt P31652). As to the kind of experiment: Serotonin reuptake inhibition at the serotonin transporter. The assay is classed as biochemical, human. The conditions noted are these: in vitro, homogenized rat brain.

Molecules are shown by their SMILES.

As a reminder, the IC50 is the concentration that gives 50% inhibition. Higher therefore signals lower potency. As for `Fc1ccc(C(OCCN2CCN(CCCc3ccccc3)CC2)c2ccc(F)cc2)cc1` [1-[2-[bis(4-fluorophenyl)methoxy]ethyl]-4-(3-phenylpropyl)piperazine], the 50% inhibitory concentration (IC50) at hNET transporter is 0.44 µM; against hSERT transporter it was 0.17 µM.

(Values after patent US20060019966A1, “Method for treating nervous system disorders and conditions” (Wyeth, priority 2004, published 2006).)
